The source of these data is publication PMC9610617, “Anti-HIV Ermiasolides from Croton megalocarpus” (Molecules, 2022).

The test system of the assay is HIV-1IIIB. The assay is described as follows: Anti-HIV activity: inhibition of HIV-induced cytopathic effect in infected MT-4 cells (MTT). In kind it is cell-based, Human immunodeficiency virus type 1. The settings on record: ratio CC50 (MT-4) / IC50 (HIV-1IIIB). As to the method: Human immunodeficiency virus type 1 (HIV-1IIIB) strain was obtained from the NIH HIV Reagent Program, Division of AIDS, NIAID, NIH. Dr. Robert Gallo donated human immunodeficiency virus-1 IIIB (ARP-398). HIV-1IIIB is highly capable of replicating in human T cell lines and appears to be well adapted for in vitro culture in T cells. The frozen HIV-1IIIB vials were thawed by immersion in room temperature water, and the vial was swirled until viruses were thawed. Then, 400 µL of the virus was transferred to 75 cm^2 tissue culture flasks (T75) containing 10 mL of 1 × 10^5 pelleted MT4 cells/mL, vortexed and incubated at 37 °C for 1 hr for virus adsorption. After 1 hr, 20 mL of RPMI-1640 was added gently and mixed with vortexing. […] The pelleted cells were then washed and resuspended in 30 mL RPMI 1640 with L-glutamine and 20% fetal bovine serum in a T75 flask, incubated at 37 °C and monitored for the development of cytopathic effects (CPEs).
The virus infectivity test was performed to determine the infectious titer of the virus, which can cause cytopathic effects (CPE) in tissue culture over a reasonable period of 3 to 10 days while cells in culture remain viable. In addition, this procedure was performed to quantify the amount of virus required to produce a cytopathic effect in 50% of cell culture replicates (TCID50). […] The TCID50 was then calculated as described by. […]
For orientation: Protection from cytopathic effect is a common read-out in antiviral testing.

Take `C[C@H](Cn1cnc2c(N)ncnc21)OCP(=O)(O)O` [TDF, tenofovir]: the “SI, selective index” value was 176.5.
